Measurements reported in PubChem BioAssay AID1347404 (Pan Lab, Icahn School of Medicine at Mount Sinai, 2020).
The list shows a part of the results, in another mix than the full data. The source made the active and inactive calls. Rule as the data show it: active = inhibition above about 25%; inactive = the rest.

Amino acid sequences for entries named in this document (tags omitted).
UniProt P62877, whole entry, looked up: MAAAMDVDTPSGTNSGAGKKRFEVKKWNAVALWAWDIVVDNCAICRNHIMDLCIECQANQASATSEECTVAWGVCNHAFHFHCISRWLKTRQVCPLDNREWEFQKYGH
UniProt Q13616, whole entry, looked up: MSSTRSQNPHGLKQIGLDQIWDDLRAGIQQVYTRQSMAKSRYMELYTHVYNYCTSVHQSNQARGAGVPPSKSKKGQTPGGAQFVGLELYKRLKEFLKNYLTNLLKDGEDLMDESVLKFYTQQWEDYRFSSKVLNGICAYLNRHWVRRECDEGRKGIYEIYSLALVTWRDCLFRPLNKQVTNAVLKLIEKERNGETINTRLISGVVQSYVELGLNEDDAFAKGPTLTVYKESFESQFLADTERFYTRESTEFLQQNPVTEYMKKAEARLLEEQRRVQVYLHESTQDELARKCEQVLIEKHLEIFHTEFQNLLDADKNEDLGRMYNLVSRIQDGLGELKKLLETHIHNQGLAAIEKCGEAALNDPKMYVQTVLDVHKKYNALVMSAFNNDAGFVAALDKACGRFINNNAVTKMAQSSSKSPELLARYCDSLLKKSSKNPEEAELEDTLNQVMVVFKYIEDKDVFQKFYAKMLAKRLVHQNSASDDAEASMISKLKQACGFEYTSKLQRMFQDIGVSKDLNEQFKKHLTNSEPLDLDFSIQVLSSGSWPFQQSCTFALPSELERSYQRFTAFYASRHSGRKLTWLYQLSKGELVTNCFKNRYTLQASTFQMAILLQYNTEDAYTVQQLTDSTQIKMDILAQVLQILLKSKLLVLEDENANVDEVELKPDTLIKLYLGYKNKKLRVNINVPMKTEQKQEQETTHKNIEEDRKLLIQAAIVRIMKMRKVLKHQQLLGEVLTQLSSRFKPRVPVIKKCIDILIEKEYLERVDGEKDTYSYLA

Target: E3 ubiquitin-protein ligase RBX1 (Homo sapiens) + Cullin-1 (Homo sapiens) (UniProt P62877+Q13616)
Assay: blocks human RBX1-Cullin-1 di-ubiquitin formation (AID 1347404)
Conditions: in vitro K48 di-Ub FRET, acceptor:donor ratio, 45 min; at 10 µM; active compounds read high

SMILES | inhibition
CCN(CCCl)Cc1csc2ccc(I)cc12 | inactive: -3.82%
O=C(OC1CN2CCC1CC2)c1cccc2[nH]cnc12 (stereo not given) | inactive: 6.42%
O=[N+]([O-])c1cc([N+](=O)[O-])c(-c2ccn[nH]2)s1 | inactive: -3.21%
O=C(NC(Sc1ccc(Cl)cc1)C(Cl)(Cl)Cl)c1ccccc1 (stereo not given) | inactive: 4.06%
O=[N+]([O-])c1cc([N+](=O)[O-])c(Nc2ccccc2)c([N+](=O)[O-])n1 | inactive: -6.02%
COc1ccc2nc(NP(=O)(c3ccccc3)c3ccccc3)sc2c1 | inactive: 9.04%
Cc1ccccc1C(=O)NC(Sc1ccccc1)C(Cl)(Cl)Cl (stereo not given) | inactive: -7.59%
Cc1nc2c(C)cccc2c2c1CC(C(Cl)Cl)S2 (stereo not given) | inactive: 9.64%
O=C(Nc1ccc([N+](=O)[O-])cc1[N+](=O)[O-])c1ccc([N+](=O)[O-])cc1[N+](=O)[O-] | inactive: 11.9%
COc1ccc(C(=O)OC2CN3CCC2CC3)cc1OC (stereo not given) | inactive: 0.289%
CCOc1ccc(C(=O)OC2CN3CCC2CC3)cc1 (stereo not given) | inactive: 16.5%
Cc1ccc2c(c1)n1nnnc1c1nnnn21 | inactive: 4.68%
N#CCN(N=Nc1nonc1N)c1nonc1N | inactive: 1.45%
O=[N+]([O-])c1cc([N+](=O)[O-])c(-c2[nH]ncc2[N+](=O)[O-])s1 | inactive: 12.8%
Cc1nn2c(c1[N+](=O)[O-])n1nc(C)c([N+](=O)[O-])c1n1nc(C)c([N+](=O)[O-])c21 | inactive: 2.84%
ClC1(Cl)SC12C1CC3CC(C1)CC2C3 (stereo not given) | inactive: -6%
COC(=O)C12C3C4CC5(SCCS5)C5(Br)C3C1C5C42 (stereo not given) | inactive: -1.25%
COC(=O)[C@@H]1CSC(C(Cl)(Cl)Cl)N1C(C)=O (stereo not given in full) | inactive: -1.23%
N=C1N=CN(CC(O)CO)C2N=C(N3CCOCC3)NC12 (stereo not given) | inactive: 6.83%
n1[nH]nc2c1c1n[nH]nc1c1n[nH]nc21 | inactive: 7.08%
CCC1=CC2Cc3nc4ccc(Cl)cc4c(N)c3C(C1)C2 (stereo not given) | inactive: -0.179%
COc1ccc(/C=C/C(=O)OC2CN3CCC2CC3)cc1 (stereo not given) | inactive: -3.36%
CN(CCCl)Cc1cc2cc(I)ccc2s1 | inactive: 5.29%
COc1cc(-n2cnnn2)ccc1-n1cnnn1 | inactive: 5.79%
O=C(NC(SC1=NCCS1)C(Cl)(Cl)Cl)c1cccc(I)c1 (stereo not given) | inactive: 1.65%
CN=c1cc(C)on1P(=S)(Oc1ccccc1)Oc1ccccc1 | inactive: -0.707%
COc1cc(C2NCCC3(OCCO3)C2(C)C)cc(OC)c1OC (stereo not given) | inactive: 7.75%
N#CC1(OC(=O)c2ccccc2)CN2CCC1CC2 (stereo not given) | inactive: 4.51%

SMILES | inhibition
COc1ccccc1C(=O)NC(Sc1ccccc1)C(Cl)(Cl)Cl (stereo not given) | inactive: 3.62%
CN(C)C(=O)c1cc([N+](=O)[O-])cc2c1-c1c(cc([N+](=O)[O-])cc1[N+](=O)[O-])C2=O | inactive: -4.98%
CNc1c(C(=O)Nc2ccc([N+](=O)[O-])cc2)cc([N+](=O)[O-])cc1[N+](=O)[O-] | inactive: 0.029%
Cc1ccc2nc(C)c3c(c2c1)SC(C(Cl)Cl)C3 (stereo not given) | inactive: 5.88%
O=[N+]([O-])c1ccc(CCc2ccc([N+](=O)[O-])cc2[N+](=O)[O-])c([N+](=O)[O-])c1 | inactive: -11.7%
CC(=O)O[C@H]1CN2CCC1[C@@H](c1ccccc1)C2 (stereo not given in full) | inactive: 3.44%
CCC(=O)N1C2C3N(C(=O)CC)C1C1N(C(=O)CC)C(C(N1C(=O)CC)N3C(=O)CC)N2C(=O)CC | inactive: 1.15%
CCOC(=O)OC1CN2CCC1CC2 (stereo not given) | inactive: -0.357%
O=[N+]([O-])c1ccc(NSc2ccc([N+](=O)[O-])cc2[N+](=O)[O-])c([N+](=O)[O-])c1 | inactive: -2.38%
Clc1ccc2c(c1)n1nnnc1c1nnnn21 | inactive: -2.99%
Cc1ccc(SC(NC(=O)c2ccc(C)cc2)C(Cl)(Cl)Cl)cc1 (stereo not given) | inactive: 3.51%
CCCCN(CCCl)Cc1csc2ccc(Br)cc12 | inactive: -6.74%
CN(C)C(=O)Oc1cccn2cc(-c3ccccc3)nc12 | inactive: -3.2%
COC(=O)c1cc([N+](=O)[O-])cc2c1-c1c(cc([N+](=O)[O-])cc1[N+](=O)[O-])C2=O | inactive: -6.43%
Cc1nc2ccccc2c2c1CC(C(Cl)Cl)S2 (stereo not given) | inactive: 6.96%
C(Cc1nn[nH]n1)Cc1nn[nH]n1 | inactive: -3.5%
CN(C)C(=O)Oc1ccc2n(C)c(-c3ccccc3)c[n+]2c1 | inactive: -8.57%
COc1cccc2c3c(c(C)nc12)CC(C(Cl)Cl)S3 (stereo not given) | inactive: 5.55%
CC(=O)N1C2C3N(C(C)=O)C1C1N(C(C)=O)C(C(N1C(C)=O)N3C(C)=O)N2C(C)=O | inactive: 0.129%
Cc1c([N+](=O)[O-])cc(C(=O)Nc2ccc([N+](=O)[O-])cc2)cc1[N+](=O)[O-] | inactive: 1.9%
O=[N+]([O-])c1ccc(OCC(O)COc2ccc([N+](=O)[O-])cc2[N+](=O)[O-])c([N+](=O)[O-])c1 | inactive: -8.99%
COc1ccc(CC(c2ccc(C)cc2)N2CCN(CCO)CC2)cc1OC (stereo not given) | inactive: 4.94%
CN(C)C(=O)OCCc1n(C)cc[n+]1C | inactive: 1.94%
O=C(NC(Sc1ccccc1)C(Cl)(Cl)Cl)c1cccc(Cl)c1 (stereo not given) | inactive: -2.76%
COc1ccc(C(=O)NC(Sc2ccccc2)C(Cl)(Cl)Cl)cc1 (stereo not given) | inactive: 6.87%
O=P(Nc1ccccn1)(Oc1ccccc1Cl)Oc1ccccc1Cl | inactive: 1.7%
CN(C)C(=O)Oc1cccc(-c2c[n+]3cc(OC(=O)N(C)C)ccc3n2C)c1 | inactive: -1.24%
